Measured affinities in a library of Ab-14 light chain variants

The measurements come from Engelhart et al. 2022 (doi:10.1038/s41597-022-01779-4) through the FLAb antibody collection.

All variants were tested on one target, the spike HR2 peptide PDVDLGDISGINAS (SARS-CoV-2).

The variants keep the heavy chain, the linker and the frameworks of Ab-14 (scFv order VH, three GGGGS repeats, VL).
VH: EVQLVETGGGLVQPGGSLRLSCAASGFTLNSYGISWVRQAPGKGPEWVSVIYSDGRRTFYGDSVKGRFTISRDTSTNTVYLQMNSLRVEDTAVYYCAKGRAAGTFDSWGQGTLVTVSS
VL: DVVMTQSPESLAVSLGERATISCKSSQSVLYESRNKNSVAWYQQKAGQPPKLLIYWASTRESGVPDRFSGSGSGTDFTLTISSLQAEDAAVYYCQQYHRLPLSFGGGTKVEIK

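The library (AAYL50) carries one to three amino acid substitutions per variant, with no insertions or deletions. The assay is AlphaSeq: two haploid yeast populations carry antibody and antigen on their surface. Pairs that bind mate more often; barcode pairs of the diploids are counted by sequencing. A regression on co-assayed BCL2-family reference pairs converts the normalised counts of each replicate to an apparent Kd. Mating was done three times.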

Variants are written as CDR1, CDR2 and CDR3 of the light chain (limits as in the source). Parent: KSSQSVLYESRNKNSVA, WASTRES, QQYHRLPLS.
Each Kd is an estimate from the mating assay, the geometric mean of the replicates in which the pair was seen; lower is stronger.
"no signal" means that the variant was in the library but no mating with the target was seen in any replicate; the authors take this as a sign of poor binding, and no number exists.
Background: pairings of library AAYL50 with three empty control strains gave a value in 18% of cases (median 15 µM, 5th percentile 970 nM). Values in that range, when seen in few replicates, are hard to tell from nonspecific mating. Also given: how often the same scFv was detected with the empty control strains.

{"CDR-L1": "KSSYSYLYESRNKNSVA", "CDR-L2": "WASTREI", "CDR-L3": "QQYHRLPLS", "apparent Kd": "9.1 nM", "seen in": "3/3", "empty controls": "0/9"}
{"CDR-L1": "KSSQSVLYESRWKNSVA", "CDR-L2": "WASTAES", "CDR-L3": "QQYHRLPDS", "apparent Kd": "140 µM", "seen in": "2/3", "empty controls": "6/9"}
{"CDR-L1": "KSDQSVLYESRNKNSHA", "CDR-L2": "WASTRES", "CDR-L3": "QQYPRLPLS", "apparent Kd": "no signal", "seen in": "0/3", "empty controls": "7/9"}
{"CDR-L1": "ASSNSVLYESRNKNSVA", "CDR-L2": "WASSRES", "CDR-L3": "QQYHRLPLS", "apparent Kd": "250 nM", "seen in": "3/3", "empty controls": "1/9"}
{"CDR-L1": "MSSQSVLYESRNKNSVA", "CDR-L2": "WASTCES", "CDR-L3": "QQYHRLPLS", "apparent Kd": "30 µM", "seen in": "2/3", "empty controls": "2/9"}
{"CDR-L1": "KSSQSVLYESRNWNSVA", "CDR-L2": "WSSTRES", "CDR-L3": "RQYHRLPLS", "apparent Kd": "1.4 µM", "seen in": "1/3", "empty controls": "3/9"}
{"CDR-L1": "KSSQSVLTESRNKNSVA", "CDR-L2": "WYSTRES", "CDR-L3": "QQYHRLHLS", "apparent Kd": "740 µM", "seen in": "1/3", "empty controls": "4/9"}
{"CDR-L1": "KSSQSVLYESRNKNSES", "CDR-L2": "WASTRES", "CDR-L3": "QQYSRLPLS", "apparent Kd": "no signal", "seen in": "0/3", "empty controls": "0/9"}
{"CDR-L1": "KSSQSVLYESRNKNSGA", "CDR-L2": "WGSTREW", "CDR-L3": "QQYHRLPLS", "apparent Kd": "1.6 mM", "seen in": "1/3", "empty controls": "0/9"}
{"CDR-L1": "KSSCSVLYESRNKNSVA", "CDR-L2": "WADTRES", "CDR-L3": "QIYHRLPLS", "apparent Kd": "no signal", "seen in": "0/3", "empty controls": "0/9"}
{"CDR-L1": "KSSQHVLYERRNKNMVA", "CDR-L2": "WASTRES", "CDR-L3": "QQYHRLPLS", "apparent Kd": "no signal", "seen in": "0/3", "empty controls": "1/9"}
{"CDR-L1": "KSSQSILYESRNKNSVA", "CDR-L2": "WASTRES", "CDR-L3": "QNYHRLPLS", "apparent Kd": "200 nM", "seen in": "3/3", "empty controls": "1/9"}
{"CDR-L1": "KSSQSVLYESRNKNSVA", "CDR-L2": "WASTRES", "CDR-L3": "QQYERLPLM", "apparent Kd": "1.1 µM", "seen in": "1/3", "empty controls": "0/9"}
{"CDR-L1": "KSSQSVLYESRNKNAVA", "CDR-L2": "QASTRES", "CDR-L3": "QQYHRDPLS", "apparent Kd": "14 µM", "seen in": "1/3", "empty controls": "0/9"}
{"CDR-L1": "KSSQSVFYESRNKNSVA", "CDR-L2": "WASTRSS", "CDR-L3": "QQYHRLILS", "apparent Kd": "28 nM", "seen in": "3/3", "empty controls": "0/9"}
{"CDR-L1": "KSSQSVLYEKRNKNEVA", "CDR-L2": "WASTRES", "CDR-L3": "QQYHRLPFS", "apparent Kd": "no signal", "seen in": "0/3", "empty controls": "1/9"}
{"CDR-L1": "KSSQSVLYESRNKNSVA", "CDR-L2": "WASTCES", "CDR-L3": "QQYHELPLM", "apparent Kd": "no signal", "seen in": "0/3", "empty controls": "0/9"}
{"CDR-L1": "KSSQSVLYESRNKNSRA", "CDR-L2": "WTSTRES", "CDR-L3": "QQYHRLGLS", "apparent Kd": "no signal", "seen in": "0/3", "empty controls": "0/9"}
{"CDR-L1": "KRSQSVLYESRNKISVA", "CDR-L2": "WASTRES", "CDR-L3": "QQYHRLPFS", "apparent Kd": "no signal", "seen in": "0/3", "empty controls": "4/9"}
{"CDR-L1": "PSSQSVIYESRNKNSVA", "CDR-L2": "WASTRES", "CDR-L3": "QQYHRIPLS", "apparent Kd": "18 µM", "seen in": "3/3", "empty controls": "6/9"}
{"CDR-L1": "KYSQSVLYESRNKQSVA", "CDR-L2": "WSSTRES", "CDR-L3": "QQYHRLPLS", "apparent Kd": "26 nM", "seen in": "3/3", "empty controls": "1/9"}
{"CDR-L1": "KGSQSVMYESRNKNSVA", "CDR-L2": "WASTRLS", "CDR-L3": "QQYHRLPLS", "apparent Kd": "33 nM", "seen in": "3/3", "empty controls": "2/9"}
{"CDR-L1": "KSSQSVLFESRNKNSVA", "CDR-L2": "WASTRES", "CDR-L3": "QTYHRLPNS", "apparent Kd": "140 µM", "seen in": "3/3", "empty controls": "6/9"}
{"CDR-L1": "KSSQSVLYESRTKNSVA", "CDR-L2": "WASTREE", "CDR-L3": "QQYHRLCLS", "apparent Kd": "no signal", "seen in": "0/3", "empty controls": "1/9"}
{"CDR-L1": "SSSQSVLYESRNLNSVA", "CDR-L2": "WASTRES", "CDR-L3": "QQPHRLPLS", "apparent Kd": "no signal", "seen in": "0/3", "empty controls": "0/9"}
{"CDR-L1": "KCYQSVLYEMRNKNSVA", "CDR-L2": "WASTRES", "CDR-L3": "QQYHRLPLS", "apparent Kd": "2.8 µM", "seen in": "3/3", "empty controls": "0/9"}
{"CDR-L1": "KSSQSVLYESRNKNSSA", "CDR-L2": "WARTRES", "CDR-L3": "QCYHRLPLS", "apparent Kd": "44 µM", "seen in": "1/3", "empty controls": "1/9"}
{"CDR-L1": "KSSQSVLYESRNKNSWA", "CDR-L2": "WASTRES", "CDR-L3": "QQYHWLPLS", "apparent Kd": "77 µM", "seen in": "2/3", "empty controls": "1/9"}
{"CDR-L1": "KSSQSVLGEHRNKNSVA", "CDR-L2": "WASTRES", "CDR-L3": "QQYHRLPHS", "apparent Kd": "no signal", "seen in": "0/3", "empty controls": "1/9"}
{"CDR-L1": "KSSQQVLYESRNKNTVA", "CDR-L2": "WASTRES", "CDR-L3": "QQYHRLQLS", "apparent Kd": "1.2 µM", "seen in": "3/3", "empty controls": "2/9"}

Excerpt, the final 3 entries:

{"CDR-L1": "KSSQSVLYESRNKNSWA", "CDR-L2": "WASTRES", "CDR-L3": "QQYHWLPLS", "apparent Kd": "77 µM", "seen in": "2/3", "empty controls": "1/9"}
{"CDR-L1": "KSSQSVLGEHRNKNSVA", "CDR-L2": "WASTRES", "CDR-L3": "QQYHRLPHS", "apparent Kd": "no signal", "seen in": "0/3", "empty controls": "1/9"}
{"CDR-L1": "KSSQQVLYESRNKNTVA", "CDR-L2": "WASTRES", "CDR-L3": "QQYHRLQLS", "apparent Kd": "1.2 µM", "seen in": "3/3", "empty controls": "2/9"}

In this assay the parent's reference entry averaged 4.4 nM; its copy inside this library read 48 nM.